# According to PubChem BioAssay (Tox21):
# Where “and” joins values, the source holds several entries; their conditions need not be identical. Equal values may be shown once. The list shows a part of the results, in another mix than the full data. Results filed as inconclusive are left out. Calls of active or inactive are those of the source. Unless noted, calls come from the whole dose curve; as a rule, active = well fitted curve in the direction sought with a large enough effect in the repeat runs; inconclusive = weak or mixed curves; inactive = no such curve, though single readings can be large; an effect the other way counts as inactive or inconclusive.
# Experiments:
# [1] = qHTS assay for small molecules that induce genotoxicity in human embryonic kidney cells expressing luciferase-tagged ATAD5 (AID 651632); conditions: HEK293T ATAD5-luciferase induction, 16 h; at 83.3 µM (top of the series); note: nearly all actives have a fitted effect of over 15% in size
# Procedure, shortened: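 Reporter cells (HEK293T) express luciferase-tagged ATAD5, a protein that accumulates after DNA damage. Treat 16 hr at 37C/5% CO2, add Amplite, wait 30 min at RT, and read luminescence.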
# [2] = qHTS assay for small molecule agonists of the p53 signaling pathway - cell viability (AID 651633; calls by dose curve; note: nearly all actives have a fitted effect of over 30% in size); conditions: p53RE-bla HCT-116 viability, ATP luminescence, 16 h; at 83.3 µM (top of the series)
# From the text: (§1) National Center for Advancing Translational Sciences [NCATS]
# (§2) NIH Chemical Genomics Center [NCGC]
# (§3) U.S. Environmental Protection Agency [EPA]
# (§4) National Institutes of Environmental Health Sciences [NIEHS]
# (§5) National Toxicology Program [NTP]
# (§6) U.S. Food and Drug Administration [FDA]
# p53, a tumor suppressor protein, is activated following cellular insult, including DNA damage and other cellular stresses. The activation of p53 regulates cell fate by inducing DNA repair, cell cycle arrest, apoptosis, or cellular senescence. The activation of p53, therefore, is a good indicator of DNA damage and other cellular stresses. […] The activation of the reporter gene under culture conditions can be detected by fluorescence intensity. This cell line was used to screen the Tox21 compound library in a 1536-well plate format and to identify agonists that activate the p53 signaling pathway.
# (§7) Tox21 Assay Protocol Summary:
# (§8) The p53RE-bla cells were dispensed at 4,000 cells/5 ul/well in 1536-well black wall/clear bottom plates using a Multidrop dispenser. After the assay plates were incubated at a 37 C/5% CO2 incubator for 5 hours, 23 nL of compounds dissolved in DMSO, positive controls or DMSO only was transferred to the assay plate by a pin tool. The plates were incubated at 37 C for 16 hours. After 1 uL of LiveBLAzerTM B/G FRET substrate was added using a Flying Reagent Dispenser, the plates were incubated at room temperature for 2 hours, and fluorescence intensity was measured by an Envision plate reader.
# For cell viability readout that measures cytotoxicity, 4 ul/well of CellTiter-Glo reagent was added into the assay plates using a Flying Reagent Dispenser. After 30 min incubation at room temperature, the luminescence intensity in the plates was measured using a ViewLux plate reader.
# [3] = qHTS assay for small molecules that induce genotoxicity in human embryonic kidney cells expressing luciferase-tagged ATAD5 - cell viability (AID 651634; calls by dose curve; note: nearly all actives have a fitted effect of over 25% in size); conditions: HEK293T ATAD5-luc cells viability, CellTiter-Fluor, 15.5 h; at 83.3 µM (top of the series)
# Procedure, shortened: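 Seeding of 2,000 HEK293T ATAD5-luciferase cells per well preceded pin-tool compound transfer. Plates sat 15.5 hr at 37C under 5% CO2, then fluorescence was read after 30 min with CellTiter-Fluor.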
# [4] = qHTS assay for small molecule disruptors of the mitochondrial membrane potential - cell viability (AID 720634; calls by dose curve;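 note: human HepG2 liver cancer cells; nearly all actives have a fitted effect of over 20% in size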); conditions: HepG2 viability, ATP luminescence (CellTiter-Glo), 1 h; at 83.2 µM (top of the series)
# From the text: U.S. Tox21 Program National Center for Advancing Translational Sciences [NCATS] NIH Chemical Genomics Center [NCGC] U.S. Environmental Protection Agency [EPA] National Institutes of Environmental Health Sciences [NIEHS] National Toxicology Program [NTP] U.S. Food and Drug Administration [FDA] Tox21 Assay Overview: Mitochondrial membrane potential (MMP), one of the parameters for mitochondrial function, is generated by mitochondrial electron transport chain that creates an electrochemical gradient by a series of redox reactions. This gradient drives the synthesis of ATP, a crucial molecule for various cellular processes. Measuring MMP in living cells is commonly used to assess the effect of chemicals on mitochondrial function; decreases in MMP can be detected using lipophilic cationic fluorescent dyes. […] The dye accumulates in the mitochondria of healthy cells as aggregates, with red fluorescence. The mitochondrial potential decreases and the dye could not accumulate in the mitochondria and remains in the cytoplasm in monomers, with green fluorescence. In addition to the mitochondrial potential assay, these cells were also used to test the cytotoxicity by determining the cell viability in the culture based on the quantitation of ATP present. The cytotoxicity was measured in the same assay well of MMP assay.
# Tox21 Assay Protocol Summary: 2,000 HepG2 cells in 5 uL/well were dispensed into black, clear-bottom 1536-well plates using a Multidrop Combi (Thermo Scientific) dispenser. The assay plates were incubated for an overnight at 37 C to allow cells to attach to the wells, followed by the transfer of 23 nL compound or DMSO vehicle by a pin tool (Kalypsys). The plates were incubated for 1 hr at 37 C and 5% CO2, followed by the addition of 5 uL of 2X m-MPI dye into each well using Flying Reagent Dispenser (Aurora Discovery) and then CellTiter-Glo reagent was added at 4 uL/well and incubated 30 min at room temperature. Then luminescence intensity was quantified on a ViewLux CCD-based plate reader.
# [5] = qHTS assay for small molecule disruptors of the mitochondrial membrane potential (AID 720635); conditions: HepG2 mitochondrial membrane potential, Mito-MPS dye ratio; at 83.2 µM (top of the series)
# Procedure, shortened: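 Mitochondrial membrane potential tracked with Mito-MPS dye, red aggregates (ex 540/em 590 nm) against green monomers (ex 490/em 535 nm). Compound treatment 1 hr at 37C, dye 30 min in HepG2.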
# [6] = qHTS assay to test for compound auto fluorescence at 590 nm (red) in HepG2 cells (AID 720674); conditions: HepG2 autofluorescence, red 540/590 nm, 1 h
# Procedure, shortened: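 Red autofluorescence (Ex/Em 540/590 nm, Rose Bengal sodium equivalents) was measured in HepG2 cells, 2,000 per well in MEM plus 10% FBS, plated overnight at 37 C. Readings were taken 1 hr after adding 23 nL compound or DMSO, at 37 C and 5% CO2.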
# [7] = qHTS assay to test for compound auto fluorescence at 535 nm (green) in HepG2 cells (AID 720675); conditions: green autofluorescence 485/535 nm, 1 h
# [8] = qHTS assay to test for compound auto fluorescence at 460 nm (blue) in HEK293 cells (AID 720678); conditions: blue autofluorescence 405/460 nm
# Procedure, shortened: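 Measured: blue fluorescence (Ex 405/Em 460 nm) of compound-treated HEK293 cells, incubated overnight at 37C with 5% CO2 and scaled to triamterene equivalents.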
# [9] = qHTS assay to test for compound auto fluorescence at 590 nm (red) in HEK293 cells (AID 720679); conditions: red autofluorescence 540/590 nm
# From the text: as §1, §2, §3, §4, §5, §6
# Compound auto fluorescence often interferes with screening of the compound library against various biological targets and signaling pathways. Some of these compounds may have fluorophoric properties. Such properties may interfere with the assay outputs resulting in false positives and/or negatives. To decrease such complications and ensure the compound activities are relevant in terms of biological response, the Tox21 10K compound library was screened for auto fluorescence.
# From the fluorophores used as reporter signals in our screening assays, the auto fluorescence equivalencies of compounds against three fluorophores have been evaluated: Triamterene, Fluorescein and Rose Bengal sodium for blue, green and red fluorescence, respectively. The fluorescence intensities were measured using Excitation/Emission wavelengths at 405/460nm, 485/535nm and 540/590nm for blue, green and red labels, respectively. This assay includes the red fluorescence data.
# as §7
# 2,000 HEK293 cells in 5 uL of culture medium containing 10% dialyzed FBS per well were dispensed into black wall/clear bottom 1536-well plates using a Multidrop Combi Dispenser (Thermo Scientific). The assay plates were incubated for 4-5 hr at 37C to allow cell attachment to the well bottom, followed by the transfer of 23 nL compound or DMSO vehicle by a pintool work station (Kalypsys, San Diego, CA). After the assay plates were incubated overnight at 37C and 5% CO2, fluorescence intensities in the assay plates were measured by an Envision (PerkinElmer, Shelton, CT) plate reader using three labels for measuring blue, green and red fluorescence at […] 460, 535 and 590nm respectively.
# [10] = qHTS assay for small molecule agonists of the p53 signaling pathway (AID 651631; calls by dose curve; note: nearly all actives have a fitted effect of over 15% in size; note: potency is the fitted concentration of half-maximal effect)
# From the text: U.S. Tox21 Program National Center for Advancing Translational Sciences [NCATS] NIH Chemical Genomics Center [NCGC] U.S. Environmental Protection Agency [EPA] National Institutes of Environmental Health Sciences [NIEHS] National Toxicology Program [NTP] U.S. Food and Drug Administration [FDA] Tox21 Assay Overview: p53, a tumor suppressor protein, is activated following cellular insult, including DNA damage and other cellular stresses. The activation of p53 regulates cell fate by inducing DNA repair, cell cycle arrest, apoptosis, or cellular senescence. The activation of p53, therefore, is a good indicator of DNA damage and other cellular stresses. The CellSensor p53RE-bla HCT-116 cell line (Invitrogen) contains a stably integrated beta-lactamase reporter gene under control of the p53 response elements. The activation of the reporter gene under culture conditions can be detected by fluorescence intensity. This cell line was used to screen the Tox21 compound library in a 1536-well plate format and to identify agonists that activate the p53 signaling pathway.
# as §8, with “Tox21 Assay Protocol Summary: The p53RE-bla” for “The p53RE-bla”
# % is set by controls: 0 for no effect and ±100 for the full control effect.
Structure (SMILES),activation [1],"activity change, negative = cytotoxicity [2]","activity, negative = cytotoxicity [3]","activity change, negative = cytotoxicity [4]","ratio activity, negative = MMP loss [5]","fluorescence, relative to Rose Bengal ([6]; at 91.3 µM (top of the series))","fluorescence, % of fluorescein control ([7]; at 91.3 µM (top of the series))","fluorescence, % of triamterene ([8]; at 91.3 µM (top of the series))","fluorescence, % of fluorescent control ([9]; at 91.3 µM (top of the series))",Potency [10],"fluorescence, relative to Rose Bengal ([6]; at 46 µM (top of the series))","fluorescence, % of fluorescein control ([7]; at 46 µM (top of the series))","fluorescence, % of triamterene ([8]; at 46 µM (top of the series))","fluorescence, % of fluorescent control ([9]; at 46 µM (top of the series))"
CCC(=O)N(c1ccccc1)C1(COC)CCN(CCn2nnn(CC)c2=O)CC1,inactive: 2.5%,inactive: -19.4%,inactive: 6.92%,inactive: -8.53%,inactive: 10.4%,inactive: -0.107%,inactive: 0.0746%,inactive: 0.0276%,inactive: -0.189%,,,,,
CCC(=O)N(c1ccccc1)C1CCN(CCc2ccccc2)CC1,inactive: -1.41%,inactive: 33%,inactive: 11.4%,inactive: -4.58%,inactive: 4.91%,,,,,inactive,inactive: -0.0203%,inactive: -0.0127%,inactive: -0.0187%,inactive: -0.0176%
O=[N+]([O-])C(Cl)(Cl)Cl,inactive: -0.507%,inactive: -17.9%,inactive: 14.8%,inactive: 3.73%,,inactive: 0.0061%,,inactive: 0.135%,inactive: -0.0274%,inactive,,,,
CCC(=O)N(c1ccccc1)C1(COC)CCN(CCc2cccs2)CC1,inactive: -7.98%,inactive: -17.7%,inactive: -21.6%,inactive: -8.94%,,inactive: 0.225%,inactive: -0.0734%,inactive: -0.148%,inactive: -0.114%,inactive,,,,
CN(CCCl)CCCl,,,,inactive: 8.29% and inactive: 47.7%,,inactive: 0.201%,inactive: -0.0327%,inactive: -0.0642%,inactive: 0.487%,active: 8.41 µM and active: 15.3 µM,inactive: -0.0271%,inactive: -0.067%,inactive: -0.208%,inactive: -0.587%
